For one assay, the target named is T1, LIMK2KD (Homo sapiens, UniProt P53671).
T1 construct: The cDNA coding for LIMK2 residues 330 to 632 was PCR amplified; His6 (N, cleaved yes); made in house; host or cells: baculovirus; Sf9 for virus, TriEx insect cells for expression
The assay can be described thus: Differential (dynamic) scanning fluorimetry (DSF) assay, LIMK2KD. The assay is classed as binding. Conditions: 10 µM.

Sequences of proteins named here, by UniProt entry; tags and fusion partners are left off. Residues count along the entry.
UniProt P53671, 330-632: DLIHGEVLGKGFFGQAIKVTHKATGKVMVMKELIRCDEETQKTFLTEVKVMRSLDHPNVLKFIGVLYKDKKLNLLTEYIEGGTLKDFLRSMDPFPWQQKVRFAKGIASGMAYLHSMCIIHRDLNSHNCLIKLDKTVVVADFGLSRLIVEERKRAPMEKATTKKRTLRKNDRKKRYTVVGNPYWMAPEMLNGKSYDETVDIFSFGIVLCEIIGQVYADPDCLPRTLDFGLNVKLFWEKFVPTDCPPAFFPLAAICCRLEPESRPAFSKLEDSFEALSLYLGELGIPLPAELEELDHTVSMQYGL
UniProt P53667, 330-637: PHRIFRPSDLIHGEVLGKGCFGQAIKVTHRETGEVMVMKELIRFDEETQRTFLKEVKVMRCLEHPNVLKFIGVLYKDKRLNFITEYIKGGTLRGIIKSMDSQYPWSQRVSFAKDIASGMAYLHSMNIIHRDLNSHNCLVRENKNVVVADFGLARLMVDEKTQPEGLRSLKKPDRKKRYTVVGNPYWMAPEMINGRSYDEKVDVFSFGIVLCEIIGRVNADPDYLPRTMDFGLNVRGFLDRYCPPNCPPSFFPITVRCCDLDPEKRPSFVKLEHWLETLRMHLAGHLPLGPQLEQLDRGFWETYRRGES

The target in another assay is LIMK1KD (Homo sapiens, UniProt P53667). The assay can be described thus: Differential (dynamic) scanning fluorimetry (DSF) assay, LIMK1KD.

With `CN1CC[C@H](c2c(O)cc(O)c3c(=O)cc(-c4ccccc4Cl)oc23)[C@H](O)C1.Cl` [Flavopiridol HCl], the “TM Shift LIMK2 (K)” value on LIMK2KD turned out to be 1.4 K. The “TM Shift LIMK1 (K)” value on LIMK1KD is given as 1.4 K.

(Values after PMC6835155, “Lessons from LIMK1 enzymology and their impact on inhibitor design” (Biochemical Journal, 2019).)
